These results are taken from patent publication US11993574B2, “Pyrazole and imidazole compounds for inhibition of IL-17 and RORgamma” (REATA PHARMACEUTICALS, INC., priority 2018, dated 2024).

Sequences of proteins named here, by UniProt entry; tags and fusion partners are left off. Residues count along the entry.
UniProt P51449, 269-508 limits assumed: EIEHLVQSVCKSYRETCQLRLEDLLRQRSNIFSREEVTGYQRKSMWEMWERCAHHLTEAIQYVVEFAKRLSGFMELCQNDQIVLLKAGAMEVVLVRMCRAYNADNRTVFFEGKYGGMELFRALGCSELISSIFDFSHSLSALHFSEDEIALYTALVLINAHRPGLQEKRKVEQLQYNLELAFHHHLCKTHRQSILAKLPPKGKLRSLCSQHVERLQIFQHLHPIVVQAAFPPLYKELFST

In assay [1] the test system is Nrf2 transcription factor. As to the kind of experiment: AREc32 luciferase reporter assay. Conditions: AREc32 cells, 19 hours; concentration required to increase GST ARE luciferase reporter activity by 2-fold. The source says:
A. AREc32 Luciferase Reporter Assay
The AREc32 luciferase reporter assay allows for quantitative assessment of the endogenous activity of the Nrt2 transcription factor in cultured mammalian cells. AREc32 cells are derived from MCF-7 human breast carcinoma cells that were stably transfected with a reporter construct that contains the firefly luciferase gene located downstream of eight copies of the rat GSTA2 antioxidant response element (ARE) sequence (Wang et al., 2006; Concept Life Sciences Integrated Discovery and Development Services Ltd (CLSIDDS)). Active Nrf2 binds to the ARE sequences and increases expression of the firefly luciferase gene. To assess the Nrf2-activating potential of the test compounds, AREc32 cells were plated in black […] plates at a density of 20,000 cells per well in triplicate in DMEM+10% FBS+0.8 mg/mL Geneticin and incubated at 37° C. with 5% CO2 in a humidified atmosphere. […] Luciferase activity was determined using the ONE-Glo Luciferase assay (Promega). The luminescence signal was measured on a BMG Pherastar microplate reader. The mean luminescence value from test compound-treated wells was normalized to that from DMSO-treated wells and was represented as fold-induction. Data were analyzed using GraphPad Prism version 6.00 for Windows, GraphPad Software, La Jolla Calif. […]
On the technique in general: Reporter assays use an easily measured gene product as a stand-in for the process of interest.

In another assay the test system is IL-17A. As to the kind of experiment: IL-17 release from differentiated primary human T-cells (IL-17A HTRF assay). Conditions: read-out: hIL17 IC50; primary human CD4+ T cells differentiated into Th17 cells, 45-hour incubation, IL-17A in supernatant. As to the method:
C. IL-17 Release from Differentiated Primary Human T-Cells and Cell Viability
Primary human cryopreserved CD4+ T Cells (Lonza) were thawed according to the manufacturer's recommendations and plated either in Lymphocyte Growth Medium-3 (LGM-3) or X-VIVO 20 media (Lonza) in 96-well tissue culture plates at a density of ˜2×10^5 cells per well, and allowed to recover for approximately 4 hours at 37° C. with 5% CO2 in a humidified atmosphere. After the recovery step, DMSO (vehicle) or test compound at doses ranging from 2 to 500 nM or 4 to 1000 nM in a three-fold dilution series was added to the cells. Three replicate wells were tested for each treatment condition. […] Cell viability was assessed in the original plate using the CyQuant Direct Assay (Life Technologies). […] Fluorescence was read on a SpectraMax M2e spectrophotometer at 480 nm (excitation) and 535 nm (emission) wavelengths. […] The concentration of IL-17A in the supernatant was measured using the Homogeneous Time-Resolved Fluorescence (HTRF) assay (Cisbio Bioassays) according to the manufacturer's protocol. […] Data were analyzed using GraphPad Prism (GraphPad Software, La Jolla California USA). […] The IC50 values for compound-mediated reduction in IL-17A levels and cell viability were determined by non-linear regression analysis using the log(inhibitor) vs. normalized response with variable slope equation. […]
Background: TR-FRET usually uses a lanthanide donor and a delayed reading to cut background.

In assay [2] the target is Human RAR-related Orphan Receptor Gamma (RORγ) (Homo sapiens, UniProt P51449). As to the kind of experiment: RORγ assay (GAL4-RORγ hybrid luciferase reporter, Indigo Biosciences). Conditions: read-out: RORγ IC50; inverse-agonist activity, GAL4-RORγ reporter cells, 23 hours. The source says:
B. RORγ Assay and Cell Viability
The RORγ assay system was purchased from Indigo Biosciences. This nuclear receptor assay utilizes a human cell line that has been engineered to express a hybrid form of the Human RAR-related Orphan Receptor Gamma (RORγ) at high levels. The N-terminal DNA binding domain (DBD) of the native RORγ receptor was substituted with the yeast GAL4-DBD to generate the GAL4-RORγ hybrid nuclear receptor. The reporter cell line is transfected with a plasmid that encodes the beetle luciferase gene under the control of the GAL4 upstream activating sequence (UAS). GAL4 binds to the UAS and increases transcription of downstream target genes. The GAL4-RORγ hybrid is constitutively active; therefore, the principle application of this reporter assay system is to screen test compounds to quantify inverse-agonist activities against human RORγ. Because the ligand binding domain (LBD) of RORγ is identical to the LBD of RORγt, this assay is an accurate surrogate for evaluating activity of experimental ligands against RORγt. […] After this incubation, luciferin was added to the wells and luciferase activity was determined by measuring the luminescence signal using a BMG Pherastar microplate reader. Viability was determined using the Live Cell Multiplex Assay (Indigo Biosciences). […] Data were analyzed using GraphPad Prism version 6.00 for Windows (GraphPad Software, La Jolla Calif. USA). […]

Usually IC50 stands for the concentration that gives 50% inhibition. Turning to `C[C@@]12C=C(C#N)C(=O)C[C@H]1CCc1c(-c3ccccc3)nn(-c3ccc(C#N)cc3)c12`, the “NRF2 ARE 2-Fold (EC2×)” value in assay [1] stood at 0.502 µM. Besides, the figures for the 50% inhibitory concentration (IC50) (in the assay on IL-17A; in assay [2]) were 141 nM and 257 nM, respectively.
For `C[C@@]12C=C(C#N)C(=O)C[C@H]1CCc1c(-c3ccccc3)nn(-c3ccc(F)cc3)c12`, in assay [1], the “NRF2 ARE 2-Fold (EC2×)” value stood at 0.292 µM. In addition, in assay [2], the IC50 came out at 248 nM.
